{
  "source": "patent US20140051601A1",
  "about": "“METABOLOMIC PROFILING OF CANCER” (METABOLAN INC., priority 2006, published 2014)",
  "key": {"PrEC cells": {"system": "PrEC cells", "assay": "Sarcosine-induced invasion after pre-treatment with EGFR inhibitor", "type": "cell-based", "conditions": "50 μg/ml"}, "RWPE cells": {"system": "RWPE cells", "assay": "Sarcosine-induced invasion after pre-treatment with EGFR inhibitor", "type": "cell-based", "conditions": "50 μg/ml"}},
  "data": [
    {"substance": "C225: antibody-mediated inhibition of EGFR activity", "values": [
      {"measurement": "block of sarcosine induced invasion", "setting": "PrEC cells", "value": "completely blocked"},
      {"measurement": "block of sarcosine induced invasion", "setting": "RWPE cells", "value": "completely blocked"}
    ]}
  ]
}
